Measured values published in ChEMBL document CHEMBL5058646 (2022).

Experiments:
[1] = target: T1, Zinc finger protein 131 (Homo sapiens) (UniProt P52739); conditions: SUD4
T1 sequence (whole entry): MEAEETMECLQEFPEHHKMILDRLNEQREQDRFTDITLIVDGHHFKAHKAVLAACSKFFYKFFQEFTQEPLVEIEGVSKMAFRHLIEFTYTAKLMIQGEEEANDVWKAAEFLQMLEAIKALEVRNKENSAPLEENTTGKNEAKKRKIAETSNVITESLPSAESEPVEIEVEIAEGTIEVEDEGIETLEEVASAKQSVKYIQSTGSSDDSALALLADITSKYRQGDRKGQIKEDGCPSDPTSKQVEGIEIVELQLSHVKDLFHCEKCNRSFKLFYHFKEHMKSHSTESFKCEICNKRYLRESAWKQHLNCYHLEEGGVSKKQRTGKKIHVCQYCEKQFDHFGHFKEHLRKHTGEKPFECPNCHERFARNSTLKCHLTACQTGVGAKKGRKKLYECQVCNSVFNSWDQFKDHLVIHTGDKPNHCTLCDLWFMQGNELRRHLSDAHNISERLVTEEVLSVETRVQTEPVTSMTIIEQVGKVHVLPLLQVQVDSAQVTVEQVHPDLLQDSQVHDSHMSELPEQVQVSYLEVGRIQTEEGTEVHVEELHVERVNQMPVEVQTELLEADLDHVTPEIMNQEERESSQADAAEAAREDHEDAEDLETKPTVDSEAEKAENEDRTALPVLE

[2] = target: T2, Zinc finger and BTB domain-containing protein 44 (Homo sapiens) (UniProt Q8NCP5); conditions: OCI-Ly1
T2 sequence (whole entry): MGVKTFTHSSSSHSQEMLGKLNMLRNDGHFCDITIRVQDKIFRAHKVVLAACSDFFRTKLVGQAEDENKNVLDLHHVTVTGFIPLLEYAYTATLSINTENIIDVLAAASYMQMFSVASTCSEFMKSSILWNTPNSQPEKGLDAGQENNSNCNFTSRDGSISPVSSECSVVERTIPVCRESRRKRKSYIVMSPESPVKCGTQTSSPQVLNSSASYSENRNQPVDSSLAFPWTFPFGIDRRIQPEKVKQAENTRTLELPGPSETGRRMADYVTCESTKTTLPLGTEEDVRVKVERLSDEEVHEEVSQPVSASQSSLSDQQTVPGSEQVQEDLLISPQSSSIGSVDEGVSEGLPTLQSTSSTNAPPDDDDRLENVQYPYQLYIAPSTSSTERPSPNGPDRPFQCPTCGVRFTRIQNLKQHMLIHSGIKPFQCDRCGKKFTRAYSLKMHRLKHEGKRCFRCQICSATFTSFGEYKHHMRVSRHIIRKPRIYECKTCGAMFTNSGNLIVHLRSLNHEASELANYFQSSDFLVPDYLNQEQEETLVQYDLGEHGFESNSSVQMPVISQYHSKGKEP

[3] = target: T3, Telomere zinc finger-associated protein (Homo sapiens) (UniProt P10074); conditions: SUD4
T3 sequence (whole entry): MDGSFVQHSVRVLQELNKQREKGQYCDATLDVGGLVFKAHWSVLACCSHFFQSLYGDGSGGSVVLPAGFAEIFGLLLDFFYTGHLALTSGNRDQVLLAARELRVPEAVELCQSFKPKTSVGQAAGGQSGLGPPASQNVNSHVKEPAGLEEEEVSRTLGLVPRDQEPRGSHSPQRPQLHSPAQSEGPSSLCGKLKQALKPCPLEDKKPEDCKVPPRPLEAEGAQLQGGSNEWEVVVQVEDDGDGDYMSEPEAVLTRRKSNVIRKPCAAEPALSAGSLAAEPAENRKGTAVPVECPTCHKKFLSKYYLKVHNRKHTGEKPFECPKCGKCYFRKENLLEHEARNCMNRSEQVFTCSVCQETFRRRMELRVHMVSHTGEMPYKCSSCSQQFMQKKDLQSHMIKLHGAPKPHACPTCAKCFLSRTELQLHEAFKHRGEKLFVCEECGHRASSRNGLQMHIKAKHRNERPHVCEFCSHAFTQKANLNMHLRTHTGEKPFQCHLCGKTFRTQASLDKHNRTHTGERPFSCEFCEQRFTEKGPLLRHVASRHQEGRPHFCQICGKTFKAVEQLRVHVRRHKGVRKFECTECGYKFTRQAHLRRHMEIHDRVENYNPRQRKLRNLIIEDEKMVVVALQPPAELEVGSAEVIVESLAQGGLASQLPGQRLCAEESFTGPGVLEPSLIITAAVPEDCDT

[4] = target: T4, Zinc finger and BTB domain-containing protein 10 (Homo sapiens) (UniProt Q96DT7); conditions: SUD4
T4 sequence (whole entry): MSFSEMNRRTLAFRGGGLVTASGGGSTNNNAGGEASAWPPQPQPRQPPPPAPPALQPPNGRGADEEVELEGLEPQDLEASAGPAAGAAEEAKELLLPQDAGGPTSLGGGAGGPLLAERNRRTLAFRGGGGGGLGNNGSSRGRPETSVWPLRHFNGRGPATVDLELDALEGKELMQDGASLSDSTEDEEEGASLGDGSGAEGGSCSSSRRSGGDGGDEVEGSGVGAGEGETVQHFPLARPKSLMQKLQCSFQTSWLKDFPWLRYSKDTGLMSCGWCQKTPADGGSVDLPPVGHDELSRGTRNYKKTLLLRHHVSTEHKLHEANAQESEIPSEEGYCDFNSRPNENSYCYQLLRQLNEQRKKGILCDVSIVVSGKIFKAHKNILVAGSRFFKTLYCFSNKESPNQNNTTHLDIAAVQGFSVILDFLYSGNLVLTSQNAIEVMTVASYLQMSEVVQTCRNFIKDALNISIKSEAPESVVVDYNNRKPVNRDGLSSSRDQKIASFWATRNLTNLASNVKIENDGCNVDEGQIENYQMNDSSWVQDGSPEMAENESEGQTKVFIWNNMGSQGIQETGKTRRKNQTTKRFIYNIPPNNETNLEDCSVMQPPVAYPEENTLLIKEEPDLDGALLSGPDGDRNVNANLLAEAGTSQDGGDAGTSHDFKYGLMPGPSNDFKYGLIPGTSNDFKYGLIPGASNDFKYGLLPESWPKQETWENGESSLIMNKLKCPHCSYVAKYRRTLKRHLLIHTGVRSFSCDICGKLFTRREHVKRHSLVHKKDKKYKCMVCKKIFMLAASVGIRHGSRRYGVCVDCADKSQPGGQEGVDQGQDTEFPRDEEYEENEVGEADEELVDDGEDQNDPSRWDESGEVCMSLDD

- Normalized abundances for DMSO [1]: 1720
- Normalized abundances for compound [1]: 1860
- Normalized abundances for DMSO [2]: 9.4
- Normalized abundances for compound [2]: 12.6
- Normalized abundances for DMSO [3]: 1050
- Normalized abundances for compound [3]: 1040
- Normalized abundances for DMSO [4]: 3640
- Normalized abundances for compound [4]: 3960
SMILES: C[C@@H]1CN(c2ncc(Cl)c(Nc3ccc4c(c3)n(CCC(C)(C)O)c(=O)n4C)n2)C[C@H](C)C1(F)F
